This note sets out measurements from patent US7799799B2, “Indolizine derivatives, method for preparing same, and therapeutic compositions comprising same” (Sanofi-Aventis, priority 2005, dated 2010).

The nature of the data set: Solubility test at pH=4 from phosphate buffer pH 6 0.1M, by HPLC. The class given is physicochemical. As for the experimental part:
The results for solubility, S, and pH are shown in the table below and are expressed in mg/ml.
A phosphate buffer, pH6, 0.1M, was prepared by adding 6.15 ml of 0.1M Na2HPO4 to 43.85 ml of 0.1M NaH2PO4. The solution was made up to 100 ml with filtered water using a Millipore system (trade mark).
Reference (Test Product in a Concentration in which the Latter is Soluble and which Acts as an Internal Reference)
About 0.2 mg (in a boat) was weighed out exactly and diluted in 1 ml of H2O/CH3CN: (50:50), i.e. 0.2 mg/ml, then the sample was subjected to ultrasound for 5 minutes.
About 4 mg (in a boat) was weighed out exactly and diluted in 400 μl (i.e. 10 mg/ml) of pH6 phosphate buffer (0.1M), then the sample was subjected to ultrasound for 5 minutes.
The pH was noted and if the pH was below 4, 1 μl of NaOH 1N was added (from 1 μl in 1 μl) until the pH was more than 4, then the pH was noted again. The solution (0.45 μm) was filtered then if necessary diluted with the phosphate buffer pH6. (If the product re-precipitated after diluting, the diluted sample was ignored, the mother solution was used and the solubility was determined at a wavelength other than λmax, to avoid saturating the signal.
The solubility of the compound was then determined by HPLC under the following conditions:
Instrument: Agilent 1100 chromatograph
Column temperature: 30° C. […]

As for “4-[3-(dipropylamino)propyl]phenyl}(2-isopropylindolizin-3-yl)methanone hydrochloride [compound 12]”, the “solubility, S” value (phosphate buffer pH 6 0.1M, HPLC, first figure of the S/pH cell, the pH of the sample is the second) turned out to be 1200 µg/mL. In addition, the “pH (of the solubility sample)” value (second figure of the S/pH cell, pH noted for the solubility sample) is on record as 4.3.
